# Results reported in PubChem BioAssay AID732 (Emory University Molecular Libraries Screening Center, 2007).
# Values joined by “and” are separate entries in the source; they are usually repeats but may differ in a detail not shown here. Equal values may be shown once. Active and inactive are the calls of the source. The rule behind the calls is not given here.
# System: in vivo angiogenesis, blood vessel count
# Assay: reduction of blood vessel formation in vivo – HTS, in vivo study (AID 732);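 note: zebrafish embryos dosed at one day post fertilization; 0% = reference inhibitor and 100% = plate mean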
# Conditions: active compounds read low;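 tested at 30 µM in the well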
row,Structure (SMILES),vessel count % control
1,CN(CCCl)Cc1cc(Cl)c(NC2=NCCN2)c(Cl)c1,inactive: 85.5%
2,CN(C(=O)Cc1ccccc1)[C@@H]1CC[C@]2(CCCO2)C[C@H]1N1CCCC1,inactive: 102%
3,CN(C(=O)Cc1ccc(Cl)c(Cl)c1)[C@H]1CCCC[C@@H]1N1CCCC1,inactive: 124% and inactive: 116%
4,CN(C(=O)Cc1ccc(Cl)c(Cl)c1)[C@@H]1CC[C@]2(CCCO2)C[C@H]1N1CCCC1,inactive: 107%
5,CN(C(=O)Cc1ccc(Cl)c(Cl)c1)[C@@H]1CCCC[C@@H]1N1CCCC1,inactive: 114%
6,CN(C(=O)Cc1ccc(Cl)c(Cl)c1)[C@@H]1CCCC[C@H]1N1CCCC1,inactive: 102%
